One molecule from patent publication US4246340A, “Method and reagent for bioluminiscence” (LKB-Producter AB, priority 1979, dated 1981) can be followed below.

Amino acid sequences for entries named in this document (tags omitted).
UniProt P08659, whole entry: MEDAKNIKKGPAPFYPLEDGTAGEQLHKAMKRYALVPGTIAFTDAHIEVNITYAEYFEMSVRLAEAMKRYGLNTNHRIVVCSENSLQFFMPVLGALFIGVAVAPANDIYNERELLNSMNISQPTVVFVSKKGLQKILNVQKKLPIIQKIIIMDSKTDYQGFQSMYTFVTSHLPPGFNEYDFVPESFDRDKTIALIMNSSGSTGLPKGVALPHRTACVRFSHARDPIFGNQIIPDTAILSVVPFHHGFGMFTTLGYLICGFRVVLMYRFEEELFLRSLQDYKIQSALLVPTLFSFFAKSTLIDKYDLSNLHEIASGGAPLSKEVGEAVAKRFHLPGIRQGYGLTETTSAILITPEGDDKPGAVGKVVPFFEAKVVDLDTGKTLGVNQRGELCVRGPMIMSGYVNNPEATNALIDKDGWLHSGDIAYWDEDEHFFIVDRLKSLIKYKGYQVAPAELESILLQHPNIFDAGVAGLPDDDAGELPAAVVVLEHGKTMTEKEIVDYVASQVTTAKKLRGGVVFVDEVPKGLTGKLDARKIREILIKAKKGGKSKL

The experiment deals with luciferase (Photinus pyralis, UniProt P08659). Kind of experiment: Light intensity versus time after adding ATP to the luciferase/D-luciferin bioluminescence reagent with additives (FIG. 2). To be noted: additive 10 μg/ml; D-luciferin 100 μg/ml, 10^-6 M ATP, pH 7.75.

For the molecule `O=C(O)[C@@H]1CSC(c2nc3ccc(O)cc3s2)=N1` [L-luciferin], the “inhibition of the luciferase reaction (light intensity)” value was “about 70%”.
